SMARCA2 act = increases SMARCA2 function in MMTV reporter cells; activation, % at 9.1 µM; actives 1% (n = 370,000); MG213 cells, MMTV-luciferase reporter, dexamethasone, overnight; in the data active means activation above about 7.8%
UUG fidelity = yeast start codon fidelity modulation; activity score, % at 18.7 µM; actives 0.13% (n = 350,000); S. cerevisiae UUG-firefly luciferase reporter, luminescence/redox ratio; AID 602363;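 active means replicate mean at a twofold rise or more, about +100% in these data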;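 further: firefly luciferase made from a UUG start codon reports start codon fidelity; reporter light over untreated wells divided by growth signal over untreated wells; some hits fall short of that in this replicate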
PDI inh = inhibitors of human protein disulfide isomerase | P07237 | PDI insulin aggregation turbidity, A650, 90 min | inhibition, % at 10 µM | actives 0.052% (n = 350,000);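 active means mean inhibition across replicates of 30% or more, whatever share of single replicates reach that level; inconclusive means mean inhibition below 30% while every single replicate reaches 30%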
GSIS activator = primary screen for activators of insulin secretion dependent on glucose, INS-1E cells, GLuc reporter luminescence; INS-1E GLuc reporter insulin secretion, 2-3 h; activation, % at 16.6 µM; actives 0.61% (n = 370,000); AID 743287;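 active means lowest replicate activation of at least 40%, so every replicate reaches that level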
Rev-erbA mod = modulates human Rev-erb alpha binding to DNA | P20393 | Rev-erbα–FITC-DNA binding, fluorescence polarization, 90 min | activity, % at 10 µM | actives 0.79% (n = 370,000);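 active means activity above about 14%, limit read from the data; passing the limit was not always enough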
ERp5 inh = ERp5 (human) disulfide isomerase inhibition; AID 651711; inhibition, % at 9.99 µM; Q15084; actives 0.05% (n = 350,000); ERp5 insulin aggregation, absorbance 650 nm, 90 min;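 active means mean replicate inhibition above about 25%, with every replicate also reaching it, limit read from the data, passing the limit was not always enough; inconclusive means only one of those two criteria met; inactive means neither criterion met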
SMARCA2 conf = SMARCA2 activation, confirmation screen | shares compounds with SMARCA2 act | MG213 cells, MMTV-luciferase with dexamethasone, luminescence, overnight; MG213 cells expressing E1A, Rb sequestered; DMSO wells 0%, reference activator 100% | activation, % at 9.1 µM | actives 30% (n = 3,500);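 active means activation above its plate's cutoff, the mean activation of tested wells plus 3 SD, cut at about 7.9% in these data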
VP16 Luc act = counter-screen for SMARCA2 activators: GAL4-VP16 luciferase reporter activation; shares compounds with SMARCA2 act; HEK293 GAL4-VP16 pG5luc reporter, luciferase luminescence; scaled: DMSO wells 0%, SAHA wells 100%; activation, % at 9.1 µM; actives 41% (n = 3,500);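 active means activation above the solvent-only control well mean plus 3 SD, averaged across control plates, cut at about 5.2% in these data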
Of the large screens only hits and unclear results are named; the others gave an inactive call (follow-up assays come after a bar, where they were run). The list is not random: actives were taken first. Their share in the collection is about 2.1%.

COc1ccccc1CNC(=O)Cc1ccccc1	SMARCA2 act 9.5 (no result: GSIS activator) | SMARCA2 conf inactive | VP16 Luc act inactive
COc1ccccc1CNC(=O)Cc1ccc(OC)c(OC)c1	none
Cc1ccc(S(=O)(=O)N(C)C[C@@H]2Oc3c(NS(=O)(=O)c4cn(C)cn4)cccc3C(=O)N([C@@H](C)CO)C[C@@H]2C)cc1	none (no result: SMARCA2 act, UUG fidelity, PDI inh, Rev-erbA mod, ERp5 inh)
c1ccc2nc3c(nc2c1)c1ccccc1n3CCN1CCOCC1	SMARCA2 act 11, GSIS activator 72 (no result: UUG fidelity, ERp5 inh) | SMARCA2 conf 7.9 | VP16 Luc act inactive
O=c1c2ccccc2nc2c3ccccc3c(NCCN3CCOCC3)nn12	SMARCA2 act 33 (no result: UUG fidelity, PDI inh, ERp5 inh) | SMARCA2 conf 45 | VP16 Luc act inactive
C#CCn1c2ccccc2c2nc3ccccc3nc21	SMARCA2 act 9.3 (no result: UUG fidelity) | SMARCA2 conf inactive | VP16 Luc act inactive
CC(C)NC(=O)N(C)C[C@H]1Oc2ccc(NC(=O)C3CCCCC3)cc2CC(=O)N([C@@H](C)CO)C[C@H]1C	none (no result: SMARCA2 act, PDI inh, Rev-erbA mod)
O=C(COC(=O)CNS(=O)(=O)c1cccc(Br)c1)NC(=O)Nc1ccc2c(c1)OCCO2	SMARCA2 act 11, ERp5 inh inconclusive (no result: UUG fidelity) | SMARCA2 conf inactive | VP16 Luc act inactive
COCC(=O)N1C[C@@H](C)[C@@H](OC)CN(C)C(=O)c2ccc(NC(=O)C3CCC3)cc2OC[C@@H]1C	none (no result: SMARCA2 act, PDI inh, Rev-erbA mod)
O=C(Nc1cccnc1)c1cc(-c2cc(Cl)ccc2O)n[nH]1	SMARCA2 act 11 (no result: UUG fidelity) | SMARCA2 conf 9.6 | VP16 Luc act 9.9
Cc1ccc(O)c(-c2cc(C(=O)Nc3cccnc3)[nH]n2)c1	none
C/C(=N\NC(=O)c1ccccc1OCc1ccc(F)cc1)c1ccccn1	SMARCA2 act 17 | SMARCA2 conf inactive | VP16 Luc act 7.6
CO[C@H]1CN(C)C(=O)c2ccc(NC(=O)Nc3cccc(F)c3)cc2OC[C@@H](C)N(C(=O)Nc2c(C)noc2C)C[C@@H]1C	none (no result: SMARCA2 act, PDI inh, Rev-erbA mod)
COc1ccc(C2=NOC(CNC(N)=S)C2)cc1 (stereo not drawn)	SMARCA2 act 13 (no result: UUG fidelity) | SMARCA2 conf inactive | VP16 Luc act 7.7
COc1ccc(CNC(=O)C2CC(c3ccc(OC)cc3)=NO2)cc1 (stereo not drawn)	none (no result: ERp5 inh)
CCCCN(C(=O)Cc1cccs1)c1nnc(-c2cccnc2)s1	SMARCA2 act 11 | SMARCA2 conf 7.9 | VP16 Luc act 5.5
COCCN(C(=O)Cc1cccs1)c1nnc(-c2cccnc2)s1	none (no result: GSIS activator, ERp5 inh)
COc1cc(/C=N/N(C)c2ccccc2)ccc1O	SMARCA2 act 9.3 (no result: ERp5 inh) | SMARCA2 conf inactive | VP16 Luc act 9.9
C[C@H]1CCCCO[C@@H](CN(C)C(=O)Nc2ccc(C(F)(F)F)cc2)[C@@H](C)CN([C@@H](C)CO)C(=O)c2cc(NC(=O)Nc3ccccc3)ccc2O1	none (no result: SMARCA2 act, PDI inh, Rev-erbA mod)
COc1cccc(S(=O)(=O)N[C@H]2C=C[C@H](CC(=O)NCc3ccc(F)cc3)O[C@@H]2CO)c1	none (no result: SMARCA2 act, PDI inh, Rev-erbA mod)
COc1cccc(S(=O)(=O)Nc2ccc3c(c2)[C@H]2C[C@H](CC(=O)N4CCCCC4)O[C@H](CO)[C@H]2O3)c1	none (no result: SMARCA2 act, UUG fidelity, PDI inh, Rev-erbA mod)
CCC(=O)Nc1cccc(NC(=O)c2cc3ccccc3o2)c1	SMARCA2 act 8.9 (no result: ERp5 inh) | SMARCA2 conf inactive | VP16 Luc act 9.8
O=C(COc1ccccc1)NNC(=O)c1cc2ccccc2o1	SMARCA2 act 9.6 (no result: ERp5 inh) | SMARCA2 conf inactive | VP16 Luc act inactive
Cc1ccc(OCC(=O)NNC(=O)c2cc3ccccc3o2)cc1	none (no result: GSIS activator, ERp5 inh)
Cc1nonc1C(=O)N/N=C/c1ccc(O)c(O)c1	SMARCA2 act 9.0 (no result: ERp5 inh) | SMARCA2 conf inactive | VP16 Luc act inactive
COc1cc(/C=N/NC(=O)c2nc(C)cc(C)n2)ccc1O	SMARCA2 act 8.9 (no result: UUG fidelity, GSIS activator, ERp5 inh) | SMARCA2 conf inactive | VP16 Luc act inactive
COc1cc(/C=N/NC(=S)Nc2cccc(S(=O)(=O)N(C)C)c2)ccc1O	SMARCA2 act 9.8 (no result: ERp5 inh) | SMARCA2 conf inactive | VP16 Luc act 5.8
COc1cc(/C=N/NC(=O)c2nonc2C)ccc1O	SMARCA2 act 9.4 (no result: ERp5 inh) | SMARCA2 conf inactive | VP16 Luc act inactive
C[C@H]1CN([C@@H](C)CO)C(=O)c2cccc(NC(=O)Nc3ccccc3)c2O[C@@H]1CN(C)C(=O)Nc1ccc(F)cc1	none (no result: SMARCA2 act, PDI inh, Rev-erbA mod)
CNC[C@H]1Oc2ccc(NC(=O)CCN3CCOCC3)cc2CC(=O)N([C@@H](C)CO)C[C@H]1C	none (no result: SMARCA2 act, PDI inh, Rev-erbA mod)
CC=Cc1ccc2n(c1=O)C[C@H]1[C@H](CO)[C@@H](C(=O)NCc3cccc(F)c3)[C@@H]2N1S(C)(=O)=O (mixture of isomers)	none (no result: SMARCA2 act, PDI inh, Rev-erbA mod)
COc1ccc(-c2nnc(SCC(=O)Nc3ccc(S(=O)(=O)Nc4cc(C)nc(C)n4)cc3)n2-c2ccc(OC)cc2)cc1	SMARCA2 act 10 (no result: UUG fidelity, PDI inh, GSIS activator, ERp5 inh) | SMARCA2 conf inactive | VP16 Luc act inactive
Cc1cc(NS(=O)(=O)c2ccc(NC(=O)CSc3nnc(-c4ccc(Cl)cc4)n3Cc3ccco3)cc2)nc(C)n1	SMARCA2 act 9.5 (no result: UUG fidelity, PDI inh, GSIS activator, ERp5 inh) | SMARCA2 conf inactive | VP16 Luc act inactive
Cc1ccc2nc(N3C(=O)CNC3=S)sc2c1	SMARCA2 act 15 (no result: GSIS activator) | SMARCA2 conf inactive | VP16 Luc act 16
COc1ccc2nc(N3C(=O)CNC3=S)sc2c1	SMARCA2 act 8.6 | SMARCA2 conf 14 | VP16 Luc act 10
COc1ccc2nc(-n3c(O)c(C4=c5ccccc5=NC4=O)[nH]c3=S)sc2c1	none
COc1ccc2oc(=Nc3ccccc3)c(-c3nc4ccccc4[nH]3)cc2c1	SMARCA2 act 11 (no result: ERp5 inh) | SMARCA2 conf inactive | VP16 Luc act 9.8
COc1ccc(-c2nc3ccccc3[nH]2)cc1	none (no result: UUG fidelity)
CCOC(=O)C1(Cc2cccc(OC)c2)CCCN(C(=O)CSC)C1 (stereo not drawn)	none
CCOC(=O)C1(Cc2cccc(OC)c2)CCCN(C(=O)CCc2cccnc2)C1 (stereo not drawn)	SMARCA2 act 9.3 (no result: UUG fidelity) | SMARCA2 conf inactive | VP16 Luc act 7.9
Cc1ccc2cc3c(N)c(C(=O)N4CCOCC4)sc3nc2c1	SMARCA2 act 9.5 (no result: UUG fidelity, ERp5 inh) | SMARCA2 conf 14 | VP16 Luc act 14
O=C(Nc1sc2c(c1C(=O)NCc1ccco1)CCCC2)c1ccc2c(c1)OCO2	SMARCA2 act 8.9 (no result: ERp5 inh) | SMARCA2 conf inactive | VP16 Luc act 8.3
COC(=O)c1c(NC(=O)c2ccco2)sc2c1CCC2	none (no result: ERp5 inh)
O=C(Nc1sc2c(c1C(=O)O)CCC2)c1ccco1	SMARCA2 act 9.1 | SMARCA2 conf inactive | VP16 Luc act inactive
COc1cccc(S(=O)(=O)N2C[C@H](O)COC[C@@H]3O[C@@H](CC(=O)N4CCCCC4)CC[C@H]32)c1	none (no result: SMARCA2 act, PDI inh, Rev-erbA mod)
